Key:
[1] = biological target: human Plasma Kallikrein (Homo sapiens (Human), UniProt P03952); test: In vitro enzyme inhibition of human plasma kallikrein (PFR-AMC cleavage); format: biochemical; conditions: Pro-Phe-Arg-AMC substrate, 37° C., read-out: hPK IC50
Experimental: The ability of the compounds disclosed herein to inhibit human plasma kallikrein activity was quantified according to the procedures below.
A 10 mM solution of the test compound was made in DMSO. […] A control tube containing only DMSO is included. 16 μL of each compound test solution was combined with 384 μL of assay buffer (50 mM Tris-HCl pH 7.5, 150 mM NaCl, 0.01% Triton X-100) to yield a “4× test compound buffer stock”.
These solutions are hereby referred to as 4×hPK and 2×PFR-AMC, respectively.
50 μL was removed from this mixture and placed into duplicate wells on a Microfluor 1Black U-bottom microtiter plate (Thermo Scientific). This plate was incubated for 5 minutes at 37° C. To each well, 50 μL of pre-warmed 2×PFR-AMC was added to start the enzymatic reaction. Cleavage of PFR-AMC was monitored in a Biotek Synergy H4 reader set at 37° C. Readings are taken every 43 seconds for 1 hour. […] The IC50 is calculated using the Gen5 (Biotek Instruments).
The ability of the compounds in Table 3 to inhibit human plasma kallikrein activity was determined.

Chains of the proteins cited; added tags and fusions are not shown. Residues count along the entry.
UniProt P03952, 20-638: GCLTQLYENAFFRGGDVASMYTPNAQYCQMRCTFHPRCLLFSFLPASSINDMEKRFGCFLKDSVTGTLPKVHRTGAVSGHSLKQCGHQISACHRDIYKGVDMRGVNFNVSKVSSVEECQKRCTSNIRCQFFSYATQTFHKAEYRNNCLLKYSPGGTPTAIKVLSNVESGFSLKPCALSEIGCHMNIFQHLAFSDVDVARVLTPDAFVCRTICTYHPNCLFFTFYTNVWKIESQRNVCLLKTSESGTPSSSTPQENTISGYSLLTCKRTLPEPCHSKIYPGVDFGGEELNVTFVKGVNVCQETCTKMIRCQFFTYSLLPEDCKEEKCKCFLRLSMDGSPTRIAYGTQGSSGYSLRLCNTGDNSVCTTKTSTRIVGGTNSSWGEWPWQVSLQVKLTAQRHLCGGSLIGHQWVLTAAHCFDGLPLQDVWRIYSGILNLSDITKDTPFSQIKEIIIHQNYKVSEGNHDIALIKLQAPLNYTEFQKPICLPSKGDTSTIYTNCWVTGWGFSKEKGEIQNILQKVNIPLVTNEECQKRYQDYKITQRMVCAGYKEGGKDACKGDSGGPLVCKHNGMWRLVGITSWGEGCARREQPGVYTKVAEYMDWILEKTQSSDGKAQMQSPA

[2] = biological target: kallikrein (Homo sapiens (Human), UniProt P03952); test: In vitro cellular assay (contact assay): kallikrein activity in ellagic acid-activated human plasma, substrate Z-FR-2-AMC; format: biochemical; conditions: human plasma activated with ellagic acid, Z-FR-2-AMC substrate, 37° C.
Experimental: The ability of the compounds disclosed herein to inhibit cellular kallikrein activity was quantified and the respective EC50 value was determined.
All dilutions were prepared in an assay buffer comprising 50 mM Tris-HCl pH 7.2, 150 mM NaCl, and 0.01% Triton X-100.
The ten solutions of the test compounds, prepared by serial dilution, were further diluted 50-fold in the assay buffer.
Human plasma is thawed on ice and centrifuged for 15 min at 4° C. to remove platelets. A 1 mM stock solution of ellagic acid is diluted to 8 μM and mixed with human plasma, after removing platelets, at a ratio of 1:0.8. […]
The enzyme reaction was quantified by immediate kinetic reading of the assay plate using excitation/emission wavelengths of 330 nm/440 nm respectively. Fluorescence intensity was recorded for 60 min, using a time interval of 43 sec.
The inhibition activity of the test compounds were evaluated using the IC50 values, calculated according to the dose-response curve of the test compounds, fitted using the “log(inhibitor)-response (variable slope)” equation in GraphPadPrism software (GraphPad Software, Inc.).
The percentage inhibition was calculated using the following equation:
[formula] where, Mean(BG) is the average value of the fluorescence intensity of the background wells and Mean(PC) is the average value of the fluorescence intensity of the positive control wells. […]

Cc1cc(N)nc(C)c1CNC(=O)c1ccnc(Cc2cc(C#N)c3ncc(Cl)cc3c2)c1 [Example 50, N-((6-amino-2,4-dimethylpyridin-3-yl)methyl)-2-((3-chloro-8-cyanoquinolin-6-yl)methyl)isonicotinamide]
IC50 [1]: < 100 nM

Cc1cc(N)nc(C)c1CNC(=O)c1ccnc(Cc2cc(C(N)=O)c3ncc(Cl)cc3c2)c1 [Example 58, 6-((4-(((6-amino-2,4-dimethylpyridin-3-yl)methyl)carbamoyl)pyridin-2-yl)methyl)-3-chloroquinoline-8-carboxamide]
IC50 [1]: < 100 nM
EC50 [2]: < 100 nM

Reference: patent US9611252B2 (LifeSci Pharmaceuticals, Inc., priority 2013, dated 2017)
